Tested on: rat conjunctival goblet cells
Assay: Goblet cell proliferation, WST tetrazolium assay (Example 3A, Fluorescence Assay)
Assay type: cell-based
Details: 10^−7 to 10^−8M
Description: Conjunctival tissue from the fomical area and the nictitating membranes were removed from male Sprague Dawley rats. Tissue pieces were placed in explant culture in RPMI supplemented with fetal bovine serum (FBS). Over several days cells grew out of the explant and proliferated. Non-goblet cells, predominantly fibroblasts, were removed by scraping. Goblet cells were allowed to grow and proliferate for several days. Cells were removed from the tissue culture vessel by trypsin treatment. The number of cells was counted using a coulter counter. For measurement of proliferation 200 cells were seeded onto 96 well plates. […]
Goblet cells from passage 1 or 2 cultured as above were used for measurement of proliferation. […] Cellular proliferation was measured using WST-1((2-(4-Iodophenyl)-3-(4-nitrophenyl)-5-(2,4-disulfophenyl)-2H-tetrazolium, sodium salt) and WST-8 (2-[2-methoxy-4- nitrophenyl]-3-[4-nitrophenyl]-5-[2,4-disulfophenyl]-2H- tetrazolium, monosodium salt), tetrazolium salts, that indicate the number of cell present based on the presence of active mitochondria. WST compound was added to each well and the amount of yellow color read using a fluorescence spectrophotometer at 465 nm. An increase in absorbance (OD) indicated an increase in cell number. Conditions were run in quintuplicate on cells from at least 3 different animals.

Thyroid-stimulating hormone-alpha: Thyroid-stimulating hormone-alpha
effect on goblet cell proliferation: small increase in proliferation
